Laboratory results reported in PubChem BioAssay AID720642 (The Scripps Research Institute Molecular Screening Center, 2013).
Active and inactive are the calls of the source.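 How the source made its calls: active means EC50 activation potency at or below 10 µM in this mu opioid counterscreen; inactive means EC50 above 10 µM or never reaching half activation.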

By UniProt entry, the sequences of proteins in these tests, tags left out.
UniProt P35372, whole entry, looked up: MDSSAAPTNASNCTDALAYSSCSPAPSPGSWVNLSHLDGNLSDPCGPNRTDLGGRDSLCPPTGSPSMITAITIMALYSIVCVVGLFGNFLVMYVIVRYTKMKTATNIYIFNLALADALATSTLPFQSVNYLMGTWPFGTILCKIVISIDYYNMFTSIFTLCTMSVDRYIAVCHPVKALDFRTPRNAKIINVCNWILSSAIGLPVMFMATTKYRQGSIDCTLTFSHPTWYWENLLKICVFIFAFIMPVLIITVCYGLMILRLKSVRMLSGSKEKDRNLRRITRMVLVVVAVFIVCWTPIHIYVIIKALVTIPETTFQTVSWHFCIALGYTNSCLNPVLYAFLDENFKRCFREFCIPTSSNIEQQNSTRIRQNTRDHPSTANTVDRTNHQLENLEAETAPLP

Target: Mu-type opioid receptor (Homo sapiens) (UniProt P35372)
Assay: OPRM1 agonists via beta-arrestin recruitment, late-stage follow-up, counter-screen for mouse HTR2A agonist project, cell-based, luminescence, dose response, powder samples (AID 720642)
Details: U2OS OPRM1 beta-arrestin complementation

EC50: inactive: > 92.5 µM
SMILES: Nc1c2c(nc3ccccc13)CCCC2
